Measurements: ChEMBL document CHEMBL3580623, “Minor Structural Change to Tertiary Sulfonamide RORc Ligands Led to Opposite Mechanisms of Action” (ACS Med Chem Lett, 2015)

Amino acid sequences for entries named in this document (tags omitted). A change or cut given only in a name is not applied to a line headed by its entry.
UniProt P51449: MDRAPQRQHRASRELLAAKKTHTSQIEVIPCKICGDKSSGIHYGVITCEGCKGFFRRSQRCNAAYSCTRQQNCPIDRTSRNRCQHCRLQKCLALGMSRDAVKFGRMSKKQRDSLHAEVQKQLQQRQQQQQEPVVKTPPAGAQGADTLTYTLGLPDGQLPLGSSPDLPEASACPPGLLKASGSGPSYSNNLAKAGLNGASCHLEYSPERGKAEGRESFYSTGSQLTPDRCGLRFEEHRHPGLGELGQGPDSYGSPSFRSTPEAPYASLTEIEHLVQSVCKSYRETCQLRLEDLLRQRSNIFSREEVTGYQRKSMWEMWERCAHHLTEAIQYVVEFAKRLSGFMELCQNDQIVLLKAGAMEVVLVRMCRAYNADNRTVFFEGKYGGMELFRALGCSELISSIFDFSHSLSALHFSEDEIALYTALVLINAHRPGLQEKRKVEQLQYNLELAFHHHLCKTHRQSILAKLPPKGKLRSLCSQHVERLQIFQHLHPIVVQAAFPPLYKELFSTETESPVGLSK

Biological target: Nuclear receptor ROR-gamma (Homo sapiens, UniProt P51449)
Settings: 10 uM

inhibition [%] | Structure (SMILES)
< 50 | CC(=O)N1CCN(c2ccc(CN(C(=O)Cc3ccccc3)C3CCC3)c(F)c2)CC1
< 50 | CC(=O)N1CCN(c2ccc(CN(C(=O)c3ccccc3)C3CCC3)c(F)c2)CC1
